Consider three molecules from US9067935B2 (Janssen Pharmaceutica, NV, priority 2010, dated 2015).

By UniProt entry, the sequences of proteins in these tests, tags left out. Residues count along the entry.
UniProt Q1A7N1, 1-1104: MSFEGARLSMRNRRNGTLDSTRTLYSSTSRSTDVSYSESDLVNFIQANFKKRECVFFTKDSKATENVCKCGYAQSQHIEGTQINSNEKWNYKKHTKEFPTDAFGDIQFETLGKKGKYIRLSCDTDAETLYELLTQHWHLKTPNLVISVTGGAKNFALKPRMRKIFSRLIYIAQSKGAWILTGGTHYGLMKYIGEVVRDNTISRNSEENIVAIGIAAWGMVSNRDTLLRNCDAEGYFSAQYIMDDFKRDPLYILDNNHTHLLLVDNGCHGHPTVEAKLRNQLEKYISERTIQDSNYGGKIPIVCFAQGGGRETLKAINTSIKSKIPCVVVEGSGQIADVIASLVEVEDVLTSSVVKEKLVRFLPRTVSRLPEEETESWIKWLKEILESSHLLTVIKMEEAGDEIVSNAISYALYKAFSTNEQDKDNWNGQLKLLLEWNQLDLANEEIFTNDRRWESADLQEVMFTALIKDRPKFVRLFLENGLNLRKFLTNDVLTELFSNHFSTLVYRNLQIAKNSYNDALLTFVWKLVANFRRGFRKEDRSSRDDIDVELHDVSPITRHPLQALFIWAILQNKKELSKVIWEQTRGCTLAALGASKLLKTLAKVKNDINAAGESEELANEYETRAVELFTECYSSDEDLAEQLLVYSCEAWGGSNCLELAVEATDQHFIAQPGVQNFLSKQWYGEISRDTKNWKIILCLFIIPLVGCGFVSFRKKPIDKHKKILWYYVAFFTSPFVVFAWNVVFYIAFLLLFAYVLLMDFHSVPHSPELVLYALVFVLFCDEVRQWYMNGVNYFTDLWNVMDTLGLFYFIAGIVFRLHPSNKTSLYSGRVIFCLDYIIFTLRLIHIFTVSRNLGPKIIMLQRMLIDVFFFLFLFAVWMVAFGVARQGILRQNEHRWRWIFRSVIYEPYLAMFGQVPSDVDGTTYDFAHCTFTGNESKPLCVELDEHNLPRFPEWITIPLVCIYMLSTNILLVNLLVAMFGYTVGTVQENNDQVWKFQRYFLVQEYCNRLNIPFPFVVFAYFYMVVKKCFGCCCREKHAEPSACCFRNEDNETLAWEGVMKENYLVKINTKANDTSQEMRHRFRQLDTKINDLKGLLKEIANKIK

The test has as its target canine TRPM8 (Canis lupus familiaris, UniProt Q1A7N1). Briefly: In Vitro Canine TRPM8 Functional Assay (intracellular Ca2+ fluorescence, icilin challenge). The format is cell-based. Particulars: HEK293 cells stably expressing canine TRPM8; icilin at ~80% maximal response. The procedure: The functional activity of compounds of the formula (I) was determined by measuring changes in intracellular calcium concentration using a Ca^2+-sensitive fluorescent dye. The changes in fluorescent signal were monitored by a fluorescence plate reader, either a FLIPR™ (Molecular Devices) or FDSS (Hamamatsu).
At 24 hrs prior to assay, HEK293 cells stably expressing canine TRPM8 were seeded in culture medium in black wall, clear-base poly-D-lysine coated 384-well plates (BD Biosciences, NJ, USA) and grown overnight in 5% CO2 at 37° C. On assay day, growth media was removed and cells were loaded with Calcium 3 Dye (Molecular Devices) for 35 min at 37° C., under 5% CO2 and then for 25 min at room temperature and atmosphere. Subsequently, cells were tested for agonist-induced increases in intracellular Ca^2+ levels using FLIPR™ or FDSS. Cells were challenged with a compound of the Formula (I) (at varying concentrations) and intracellular Ca^2+ was measured for 5 min prior to the addition of icilin to all wells to achieve a final concentration that produces approximately an 80% maximal response. EC50 or IC50 values for compounds of the present invention were determined from eight-point dose-response studies. Curves were generated using the average of quadruplicate wells for each data point.
As for `O=S(=O)(c1ccccc1)N(Cc1cccc(C(F)(F)F)c1)c1nc2ccccn2c1C1CC1` [Compound 73], the IC50 (in general, the point on the concentration scale where inhibition reaches its midpoint) came to 37.2 nM. In other words, the double-digit nanomolar range.

`CCc1c(N(CCC(F)(F)F)S(=O)(=O)c2ccccc2)nc2c(C(F)(F)F)cccn12` [Compound 66] yielded a half-inhibitory concentration (IC50) of 77.4 nM.

`O=S(=O)(c1ccccc1)N(Cc1ccccc1)c1nc2ccc(Cl)cn2c1Cl` [Compound 17] gave an IC50 of 74.3 nM. This IC50 and that of the molecule before are within 1.5-fold of each other.
